SMILES strings stand for the structures.

Sequences of proteins named here, by UniProt entry; tags and fusion partners are left off. Residues count along the entry.
UniProt P25774, 115-331: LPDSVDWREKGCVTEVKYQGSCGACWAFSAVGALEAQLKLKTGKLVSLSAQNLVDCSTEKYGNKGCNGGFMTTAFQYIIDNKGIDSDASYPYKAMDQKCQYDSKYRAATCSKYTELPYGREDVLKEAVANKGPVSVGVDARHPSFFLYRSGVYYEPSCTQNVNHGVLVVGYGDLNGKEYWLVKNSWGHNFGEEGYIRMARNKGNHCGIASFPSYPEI

The results in this text go back to patent US20080200454A1, “CARBON-LINKED TETRAHYDRO-PYRAZOLO-PYRIDINE MODULATORS OF CATHEPSIN S” (priority 2007, published 2008).

The target in the first assay is Recombinant human cathepsin S (CatS) (Homo sapiens, UniProt P25774). The experiment in a line: Recombinant human cathepsin S (CatS) inhibition assay, fluorogenic substrate Z-Valine-Valine-Arginine-AMC.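 Also: Baculovirus-expressed CatS in pH 5.0 sodium acetate buffer with DTT and NaCl, fluorescence read each minute over 20 min, inhibition derived from rate slope.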
Conditions: not given
Regarding `CC1COCCN1CCCn1nc(-c2ccc(Cl)c(C#Cc3ccc(CNCc4ccc(Cl)cc4)cc3)c2)c2c1CCN(C(=O)C(N)=O)C2` (stereo not shown) [Example 621, 2-(3-{4-Chloro-3-[(4-{[(4-chlorobenzyl)amino]methyl}phenyl)ethynyl]phenyl}-1-[3-(3-methylmorpholin-4-yl)propyl]-1,4,6,7-tetrahydro-5H-pyrazolo[4,3-c]pyridin-5-yl)-2-oxoacetamide], the IC50 came out at 130 nM.

Turning to `CS(=O)(=O)N1CCc2c(c(-c3ccc(C(F)(F)F)c(C#Cc4ccc(Cl)cc4)c3)nn2CC(O)CN2CCC3(CCNC3=O)CC2)C1` (stereo not shown) [Example 118, 8-(3-{3-[3-(4-Chloro-phenylethynyl)-4-trifluoromethyl-phenyl]-5-methanesulfonyl-4,5,6,7-tetrahydro-pyrazolo[4,3-c]pyridin-1-yl}-2-hydroxy-propyl)-2,8-diaza-spiro[4.5]decan-1-one], the IC50 came to 130 nM.

Staying with this assay, now noted: CatS IC50.
As for `CS(=O)(=O)N1CCc2c(c(-c3ccc(Cl)c(C#Cc4cccc(O)c4)c3)nn2CCCN2CCOCC2)C1` [Example 27, 3-{2-Chloro-5-[5-methanesulfonyl-1-(3-morpholin-4-yl-propyl)-4,5,6,7-tetrahydro-1H-pyrazolo[4,3-c]pyridin-3-yl]-phenylethynyl}-phenol], the IC50 worked out at 1010 nM.

`C[C@@H]1CN(CCCn2nc(-c3ccc(Cl)c(C#Cc4ccc(CNCc5ccc(Cl)cc5)cc4)c3)c3c2CCN(S(C)(=O)=O)C3)C[C@H](C)O1` [Example 387, 1-[4-({2-Chloro-5-[1-{3-[(2R,6S)-2,6-dimethylmorpholin-4-yl]propyl}-5-(methylsulfonyl)-4,5,6,7-tetrahydro-1H-pyrazolo[4,3-c]pyridin-3-yl]phenyl}ethynyl)phenyl]-N-[(4-chlorophenyl)methyl]methanamine]: the IC50 was determined as 130 nM.

Take `CS(=O)(=O)N1CCc2c(c(-c3ccc(Cl)c(CCc4ccc(CNCc5ccc(Cl)cc5)cc4)c3)nn2CCCN2CCOCC2)C1` [Example 319, 1-[4-(2-{2-Chloro-5-[5-(methylsulfonyl)-1-(3-morpholin-4-ylpropyl)-4,5,6,7-tetrahydro-1H-pyrazolo[4,3-c]pyridin-3-yl]phenyl}ethyl)phenyl]-N-[(4-chlorophenyl)methyl]methanamine]: the IC50 turned out to be 130 nM.

In the case of `CS(=O)(=O)N1CCc2c(c(-c3ccc(Cl)c(C#Cc4ccc5c(c4)CN[C@H](C(N)=O)C5)c3)nn2CCCN2CCOCC2)C1` [Example 195, (3S)-7-({2-Chloro-5-[5-(methylsulfonyl)-1-(3-morpholin-4-ylpropyl)-4,5,6,7-tetrahydro-1H-pyrazolo[4,3-c]pyridin-3-yl]phenyl}ethynyl)-1,2,3,4-tetrahydroisoquinoline-3-carboxamide], the IC50 amounted to 130 nM.

`NC(=O)N1CCc2c(c(-c3ccc(Cl)c(C#Cc4ccc(COCC5CCNCC5)cc4)c3)nn2CCCN2CCSCC2)C1` [Example 163, 3-{4-Chloro-3-[(4-{[(piperidin-4-ylmethyl)oxy]methyl}phenyl)ethynyl]phenyl}-1-(3-thiomorpholin-4-ylpropyl)-1,4,6,7-tetrahydro-5H-pyrazolo[4,3-c]pyridine-5-carboxamide]: the IC50 stood at 130 nM.

Turning to `CS(=O)(=O)N1CCc2c(c(-c3ccc(Cl)c(C#Cc4ccc(CNCc5ccc(Cl)cc5)cc4)c3)nn2C[C@@H](O)CN2CCSCC2)C1` [Example 261, (S)-1-[3-(4-Chloro-3-{4-[(4-chloro-benzylamino)-methyl]-phenylethynyl}-phenyl)-5-methanesulfonyl-4,5,6,7-tetrahydro-pyrazolo[4,3-c]pyridin-1-yl]-3-thiomorpholin-4-yl-propan-2-ol], the IC50 was found to be 130 nM.

As for `CC(NCc1ccc(C#Cc2cc(-c3nn(CCCN4CCOCC4)c4c3CN(S(C)(=O)=O)CC4)ccc2Cl)cc1)c1ccccc1` (stereo not shown) [Example 210, N-{[4-({2-Chloro-5-[5-(methylsulfonyl)-1-(3-morpholin-4-ylpropyl)-4,5,6,7-tetrahydro-1H-pyrazolo[4,3-c]pyridin-3-yl]phenyl}ethynyl)phenyl]methyl}-1-phenylethanamine], the IC50 is 190 nM.

For `NC(=O)N1CCc2c(c(-c3ccc(Cl)c(C#Cc4ccc(CNCc5ccc(F)cc5)cc4)c3)nn2CCCN2CCSCC2)C1` [Example 544, 3-(4-Chloro-3-{[4-({[(4-fluorophenyl)methyl]amino}methyl)phenyl]ethynyl}phenyl)-1-(3-thiomorpholin-4-ylpropyl)-1,4,6,7-tetrahydro-5H-pyrazolo[4,3-c]pyridine-5-carboxamide], the 50% inhibitory concentration (IC50) was 130 nM.
